Measured values from patent publication US10463644B2, “Uses of sesquiterpene lactone compounds and their derivatives in drugs preparation” (ACCENDATECH, priority 2013, dated 2019).

How the values were obtained:
[1] = system: TNF-α secreted by synoviocyte; assay: Content of TNF-α in culture supernatant of synoviocyte of RA model rats given test compound; format: in vivo; conditions: rat RA model, dose 30 mg/kg.2d; normal control 0.38 ± 0.027, NaCl 0.74 ± 0.098
From the text: (§1) Take Compound 1-50 prepared as per the method according to the present invention and employ the method provided in Reference to prepare model, group drugs and prepare culture supernatant of rat synoviocyte.
(§2) Employ the method provided in Reference to investigate the effects of the test compounds on the synoviocyte to secrete TNF-α and PGE2. Employ the method provided in Reference to investigate the effects of the test compounds on the synoviocyte to secrete IL-1β.
(§3) The experimental data of the test compound 1-50 at a dose of 30 mg/kg.2d as well as the normal control and NaCl group are as follows: […]

[2] = system: IL-1β secreted by synoviocyte; assay: Content of IL-1β in culture supernatant of synoviocyte of RA model rats given test compound; format: in vivo; conditions: rat RA model, dose 30 mg/kg.2d; normal control 0.16 ± 0.034, NaCl 0.49 ± 0.136
From the text: as §1, §2, §3

[3] = system: PGE2 secreted by synoviocyte; assay: Content of PGE2 in culture supernatant of synoviocyte of RA model rats given test compound; format: in vivo; conditions: rat RA model, dose 30 mg/kg.2d; normal control 8.34 ± 1.29, NaCl 32.44 ± 10.32
From the text: as §1, §2, §3

cancer stem cells = assay: Survival rate of cancer stem cells after test compound is added (flow cytometry, Annexin V-FITC/PI, clinical specimen); format: cell-based, patient; conditions: Homo sapiens, 18 h
cancer cells = assay: Survival rate of cancer cells after test compound is added (flow cytometry, Annexin V-FITC/PI, clinical specimen); format: cell-based, patient; conditions: Homo sapiens, 18 h, read-out: Survival rate (%) All cells (Stem cells and ordinary cells)
normal cells = assay: Survival rate of normal cells after test compound is added (flow cytometry, Annexin V-FITC/PI); format: cell-based; conditions: 18 h
[4] = Head and neck squamous cell carcinomas
[5] = read-out: Survival rate (%) All cells (Stem cells and ordinary cells)
[6] = read-out: Survival rate (%) Stem cells

C=C1C(=O)O[C@H]2[C@H]1CCC(C)=C1CC[C@@](C)(O)[C@@H]12 [Compound 1]
Content of TNF-α in culture supernatant of synoviocyte (x ± s) [1]: 0.41 ± 0.076 ng/mL
Content of IL-1β in culture supernatant of synoviocyte (x ± s) [2]: 0.26 ± 0.042 ng/mL
Content of PGE2 in culture supernatant of synoviocyte (x ± s) [3]: 15.24 ± 1.77 ng/mL
viability at 10 µM (cancer stem cells; AML): 34%
viability at 20 µM (cancer stem cells; AML): 24%
viability at 10 µM (cancer stem cells; Brain glioma): 65%
viability at 20 µM (cancer stem cells; Brain glioma): 37%
viability at 10 µM (cancer stem cells; Brain tumor): 78%
viability at 20 µM (cancer stem cells; Brain tumor): 69%
viability at 10 µM (cancer stem cells; Breast cancer): 65%
viability at 20 µM (cancer stem cells; Breast cancer): 42%
viability at 10 µM (cancer stem cells; CLL): 44%
viability at 20 µM (cancer stem cells; CLL): 32%
viability at 10 µM (cancer stem cells; CML): 55%
viability at 20 µM (cancer stem cells; CML): 26%
viability at 10 µM (cancer stem cells; Children hepatoblastoma): 46%
viability at 20 µM (cancer stem cells; Children hepatoblastoma): 29%
viability at 10 µM (cancer stem cells; Colon adenocarcinoma): 43%
viability at 20 µM (cancer stem cells; Colon adenocarcinoma): 24%
viability at 10 µM (cancer stem cells; Colorectal cancer): 65%
viability at 20 µM (cancer stem cells; Colorectal cancer): 45%
viability at 10 µM (cancer stem cells; Gastric cancer): 45%
viability at 20 µM (cancer stem cells; Gastric cancer): 27%
viability at 10 µM (cancer stem cells; Gastrointestinal tumor): 56%
viability at 20 µM (cancer stem cells; Gastrointestinal tumor): 41%
viability at 10 µM (cancer stem cells; Glioma): 77%
viability at 20 µM (cancer stem cells; Glioma): 66%
viability at 10 µM (cancer stem cells; [4]): 60%
viability at 20 µM (cancer stem cells; [4]): 37%
viability at 10 µM (cancer stem cells; Laryngeal cancer): 65%
viability at 20 µM (cancer stem cells; Laryngeal cancer): 54%
viability at 10 µM (cancer stem cells; Liver cancer): 55%
viability at 20 µM (cancer stem cells; Liver cancer): 36%
viability at 10 µM (cancer stem cells; Lung adenocarcinoma): 36%
viability at 20 µM (cancer stem cells; Lung adenocarcinoma): 24%
viability at 10 µM (cancer stem cells; Lung cancer): 45%
viability at 20 µM (cancer stem cells; Lung cancer): 19%
viability at 10 µM (cancer stem cells; Malignant melanoma): 72%
viability at 20 µM (cancer stem cells; Malignant melanoma): 56%
viability at 10 µM (cancer stem cells; Nasopharynx cancer): 25%
viability at 20 µM (cancer stem cells; Nasopharynx cancer): 17%
viability at 10 µM (cancer stem cells; Ovarian cancer): 67%
viability at 20 µM (cancer stem cells; Ovarian cancer): 45%
viability at 10 µM (cancer stem cells; Pancreatic cancer): 54%
viability at 20 µM (cancer stem cells; Pancreatic cancer): 36%
viability at 10 µM (cancer stem cells; Prostate cancer): 34%
viability at 20 µM (cancer stem cells; Prostate cancer): 21%
viability at 10 µM (cancer stem cells; Retinoblastoma): 55%
viability at 20 µM (cancer stem cells; Retinoblastoma): 34%
viability at 10 µM (cancer stem cells; Skin cancer): 57%
viability at 20 µM (cancer stem cells; Skin cancer): 23%
viability at 10 µM (cancer cells; AML): 55%
viability at 20 µM (cancer cells; AML): 45%
viability at 10 µM (cancer cells; Brain glioma): 69%
viability at 20 µM (cancer cells; Brain glioma): 47%
viability at 10 µM (cancer cells; Brain tumor): 88%
viability at 20 µM (cancer cells; Brain tumor): 72%
viability at 10 µM (cancer cells; Breast cancer): 69%
viability at 20 µM (cancer cells; Breast cancer): 55%
viability at 10 µM (cancer cells; CLL): 55%
viability at 20 µM (cancer cells; CLL): 46%
viability at 10 µM (cancer cells; CML): 65%
viability at 20 µM (cancer cells; CML): 39%
viability at 10 µM (cancer cells; Children hepatoblastoma): 54%
viability at 20 µM (cancer cells; Children hepatoblastoma): 37%
viability at 10 µM (cancer cells; Colon adenocarcinoma): 56%
viability at 20 µM (cancer cells; Colon adenocarcinoma): 39%
viability at 10 µM (cancer cells; Colorectal cancer): 78%
viability at 20 µM (cancer cells; Colorectal cancer): 67%
viability at 10 µM (cancer cells; Gastric cancer): 56%
viability at 20 µM (cancer cells; Gastric cancer): 37%
viability at 10 µM (cancer cells; Gastrointestinal tumor): 62%
viability at 20 µM (cancer cells; Gastrointestinal tumor): 51%
viability at 10 µM (cancer cells; Glioma): 87%
viability at 20 µM (cancer cells; Glioma): 72%
viability at 10 µM (cancer cells; [4]): 67%
viability at 20 µM (cancer cells; [4]): 48%
viability at 10 µM (cancer cells; Laryngeal cancer): 75%
viability at 20 µM (cancer cells; Laryngeal cancer): 64%
viability at 10 µM (cancer cells; Liver cancer): 68%
viability at 20 µM (cancer cells; Liver cancer): 48%
viability at 10 µM (cancer cells; Lung adenocarcinoma): 47%
viability at 20 µM (cancer cells; Lung adenocarcinoma): 34%
viability at 10 µM (cancer cells; Lung cancer): 53%
viability at 20 µM (cancer cells; Lung cancer): 26%
viability at 10 µM (cancer cells; Malignant melanoma): 85%
viability at 20 µM (cancer cells; Malignant melanoma): 69%
viability at 10 µM (cancer cells; Nasopharynx cancer): 34%
viability at 20 µM (cancer cells; Nasopharynx cancer): 28%
viability at 10 µM (cancer cells; Ovarian cancer): 78%
viability at 20 µM (cancer cells; Ovarian cancer): 59%
viability at 10 µM (cancer cells; Pancreatic cancer): 64%
viability at 20 µM (cancer cells; Pancreatic cancer): 48%
viability at 10 µM (cancer cells; Prostate cancer): 46%
viability at 20 µM (cancer cells; Prostate cancer): 26%
viability at 10 µM (cancer cells; Retinoblastoma): 64%
viability at 20 µM (cancer cells; Retinoblastoma): 54%
viability at 10 µM (cancer cells; Skin cancer): 59%
viability at 20 µM (cancer cells; Skin cancer): 28%
viability at 10 µM (normal cells; [5]): 91%
viability at 10 µM (normal cells; [6]): 88%
viability at 20 µM (normal cells; [5]): 93%
viability at 20 µM (normal cells; [6]): 91%

Like-named read-outs stand apart in the source and are kept apart here.
